How the values were obtained:
[1] = system: Her2+ tumor; experiment: Ex vivo fluorescence imaging of tumors and tissues (Table 28); type: in vivo, nu/nu mice
[2] = system: SKOV3 tumor; experiment: In vivo fluorescence imaging of aHer2-XTEN conjugates (Table 27); parameters: species or system nu/nu mice; conditions: single injection

Substance: Herceptin-AF680
- total fluorescence signals in tissues (tumor, heart, lungs, spleen, liver, kidneys) ([1]; 72 hour, high dose groups): greatest signals in most tissues
- fluorescent signal in liver compared to aHer2-XTEN-864 Group 1 ([1]; Group 7, 3.3 nmol): approximately double
- time of peak tumor binding post-administration [2]: 8 h

Reference: patent US10870874B2, “Binding fusion proteins, binding fusion protein-drug conjugates, XTEN-drug conjugates and methods of making and using same” (Amunix Pharmaceuticals, Inc., priority 2010, dated 2020)
